# Screening data from PubChem BioAssay.
# This is a sample that favours compounds with a hit; in the whole collection about 16% have one here.
# miR-21 FLuc = miR-21 reporter, rising signal. HeLa miR-21 FLuc reporter, luciferase, 48 h. Potency, µM (highest dose often 38.3 µM), for the others: at the highest dose reporter change, positive = more light. 340,000 tested, under 10 active. AID 2288; active = well fitted rising curve with a large enough effect; inconclusive = small, poorly fitted or top-dose-only effect; inactive = no such curve, though single readings can be large or run the other way;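 further: % of control where 0% means no effect; miR-21 action dims this reporter so a rising signal means less miR-21 action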
#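 HeLa cells endogenously expressing miR-21, stably carrying CMV-driven firefly luciferase with a downstream miR-21 binding site, 2000 cells/well. Titrations up to approximately 40 uM, 48 hours; luciferase luminescence read.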
# DT40 TDP1 no CPT = qHTS for Inhibitors of human tyrosyl-DNA phosphodiesterase 1 (TDP1): qHTS in cells in absence of CPT. hit rate 15% among 420,000. DT40 Tdp1-/- hTDP1 cells, no CPT, ATP luminescence, 48 h. Potency, µM (titrated, usually from 46.2 µM), inactives show top-dose activity change, negative = growth inhibition, actives largely listed as inhibitors; further: potency means the concentration at half of the fitted maximal effect; on the % scale 0 is the no-effect control and ±100 the full control effect; nearly all actives have a fitted effect of over 55% in size
#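 No-CPT arm: Tdp1-/-;hTDP1 DT40 cells (400/well) plus compounds, incubated ≥48 hr at 37 °C. Readout CellTiter-Glo luminescence.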
# TDP1 cell CPT = DT40-hTDP1 cell growth loss with CPT; AID 686979; chicken DT40 Tdp1-/-;hTDP1 cells + 20 nM CPT, ATP luminescence, 48 h; hit rate 12% among 420,000; Potency, µM (highest dose often 46.2 µM), without a hit: at the highest dose activity change, negative = growth inhibition, actives largely listed as inhibitors; further: potency means the concentration at half of the fitted maximal effect; on the % scale 0 is the no-effect control and ±100 the full control effect; nearly all actives have a fitted effect of over 55% in size
#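 Cell growth measured by CellTiter-Glo luminescence after a minimum 48 h, 37 C compound exposure with 20 nM CPT in Tdp1-knockout DT40 cells stably expressing hTDP1, seeded 400/well; qHTS titration format.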
# uPA generation = inhibitors of cell surface uPA generation; cell surface uPA generation assay, qHTS; Potency, µM (series often up to 38.3 µM), for inactives: at the top dose activity change, negative = inhibition, actives largely listed as inhibitors; hit rate 0.31% among 330,000; active means well fitted inhibition curve with a large enough effect; inconclusive means small, poorly fitted or top-dose-only effect; inactive means no such curve, though single readings can be large or run the other way; tested in mouse RAW 264.7 cells; further: potency means the concentration at half of the fitted maximal effect; on the % scale 0 is the no-effect control and ±100 the full control effect; nearly all actives have a fitted effect of over 55% in size
# TDP1 inh = blocks human tyrosyl-DNA phosphodiesterase 1; recombinant TDP1, AlphaScreen DNA substrate cleavage; Potency, µM (doses to about 130 µM), inactives show at the highest dose activity change, negative = inhibition, hits mostly inhibitors; hit rate 0.28% among 350,000; Q9NUW8; further: potency means the concentration at half of the fitted maximal effect; on the % scale 0 is the no-effect control and ±100 the full control effect; nearly all actives have a fitted effect of over 40% in size
#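 Signal: AlphaScreen proximity between streptavidin donor and anti-FITC acceptor beads on intact substrate. Reaction: Tdp1 1 nM, substrate 15 nM final, 5 min RT after 15 min compound preincubation.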
# The depositor's hits bear a star; u = inconclusive; x = not tested or not shown; [ ] = remark or other dose. Unless noted, the call rests on the fitted dose curve; in most records, active means well fitted curve in the direction sought with a large enough effect; inconclusive means small, poorly fitted or top-dose-only effect, or another doubt; inactive means no such curve, though single readings can be large; an effect the other way counts as inactive or inconclusive.
1	Cc1ccc(-c2ccc(C3C4C=CCCC4(C)C(=O)N3Cc3ccccc3)c(F)c2)cc1 (centres undefined)
2	C[C@@H]1CC=C[C@H]2[C@H]1C(=O)N(Cc1ccccc1)[C@H]2c1ccc(F)c(/C=C/c2ccccc2)c1
3	CC1CC=CC2C1C(=O)N(Cc1ccccc1)C2c1ccc(F)c(/C=C/c2ccccc2)c1 (centres undefined)
4	N#CCCn1cc(/C=C2\NC(=S)N(c3ccccc3)C2=O)c(-c2ccc(F)cc2)n1
5	Cc1ccc(C(=O)Nc2ccc3c(c2)C(=O)NC3=O)cc1
6	COc1ccc(-c2cc([C@H]3[C@H]4C=CC[C@@H](C)[C@@H]4C(=O)N3Cc3ccccc3)ccc2F)cc1
7	C[C@@]12CCC=C[C@H]1[C@H](c1ccc3ccccc3c1Br)N(Cc1ccccc1)C2=O
8	C[C@@H]1CC=C[C@H]2[C@H]1C(=O)N(Cc1ccccc1)[C@H]2c1cccc([N+](=O)[O-])c1

Compound | 1 | 2 | 3 | 4 | 5 | 6 | 7 | 8
miR-21 FLuc | x | -2% | x | 7% | -5% | 5% | 10% | 7%
DT40 TDP1 no CPT | x | 8.2µM* | x | -5% | -7% | 15µM* | 18µM* | 23µM*
TDP1 cell CPT | x | 8.2µM* | x | u | -1% | 13µM* | u | 21µM*
uPA generation | x | -5% | x | 3% | 5% | 4% | u | -1%
TDP1 inh | 7% | -2% | -2% | -8% | x | -2% | 5% | 2%

9	CSc1nc(N)nc2c1ncn2CC(=O)NCCCc1ccccc1
10	COc1ccc(CN(C)C(=O)Cn2cnc3c(SC)nc(N)nc32)cc1OC
11	COC(=O)c1ccc(CNC(=O)Cn2cnc3c(SC)nc(N)nc32)cc1
12	COC(=O)[C@H](Cc1ccc(O)cc1)NC(=O)Cn1cnc2c(SC)nc(N)nc21
13	O=C1NC[C@H](CCCCN2CCN(Cc3ccccc3)C(=O)C2=O)N(Cc2ccccc2)C1=O
14	O=C1C(Cc2ccc(F)cc2)SC(=Nc2ccccc2)N1c1ccccc1 (centres undefined)
15	O=Cc1cc2ccccc2cc1O
16	Cc1cccc(-c2cc3c(N=O)c4ccccc4c-3n[nH]2)c1

Compound | 9 | 10 | 11 | 12 | 13 | 14 | 15 | 16
miR-21 FLuc | x | x | x | x | x | -9% | x | -46%
DT40 TDP1 no CPT | 15µM* | 21µM* | u | -3% | -13% | 23µM* | -26% | u
TDP1 cell CPT | u | 15µM* | 23µM* | -1% | 2% | u | u | u
uPA generation | -15% | u | 0% | 13% | x | -2% | x | 3%
TDP1 inh | 2% | 0% | 0% | -1% | x | 3% | x | x

# 4 compounds already listed, arranged by heavy-atom count, low to high.
9	CSc1nc(N)nc2c1ncn2CC(=O)NCCCc1ccccc1
11	COC(=O)c1ccc(CNC(=O)Cn2cnc3c(SC)nc(N)nc32)cc1
10	COc1ccc(CN(C)C(=O)Cn2cnc3c(SC)nc(N)nc32)cc1OC
12	COC(=O)[C@H](Cc1ccc(O)cc1)NC(=O)Cn1cnc2c(SC)nc(N)nc21

Compound | 9 | 11 | 10 | 12
miR-21 FLuc | x | x | x | x
DT40 TDP1 no CPT | 15µM* | u | 21µM* | -3%
TDP1 cell CPT | u | 23µM* | 15µM* | -1%
uPA generation | -15% | 0% | u | 13%
TDP1 inh | 2% | 0% | 0% | -1%

# (more compounds)
17	O=Nc1c2cc(-c3ccccc3)[nH]nc-2c2ccccc12
18	Cc1ccc(NC(=O)Cn2cc(C(F)(F)F)cc(Cl)c2=O)cc1Cl
19	CC(=O)/C(=N/Nc1cccc(C)c1)N1CCOCC1
20	Cc1cccc(C(=O)Nc2cccc(C(=O)N3CCOCC3)c2)c1
21	O=C1CC(N2CCOCC2)C(=O)N1Cc1ccc(N2CCCC2=O)cc1 (centres undefined)
22	O=C1CC(N2CCC(O)(c3ccc(Cl)cc3)CC2)C(=O)N1Cc1ccc(N2CCCC2=O)cc1 (centres undefined)
23	OCC1NCC(O)C(O)C1O (centres undefined)
24	CC(=O)c1ccc(C(C)(C)c2ccc(C(C)=O)s2)s1

Compound | 17 | 18 | 19 | 20 | 21 | 22 | 23 | 24
miR-21 FLuc | -25% | 2% | -1% | -17% | -2% | 13% | x | -1%
DT40 TDP1 no CPT | 21µM* | 4% | u | -3% | 13% | 15µM* | x | 23µM*
TDP1 cell CPT | 21µM* | 3% | 6.5µM* | -2% | 6% | u | x | u
uPA generation | -23% | 1% | 5% | x | -2% | 3% | x | -6%
TDP1 inh | x | -5% | 10% | 1% | -4% | 1% | 9%[56.1 µM] | 6%

25	O=C(NCc1cccc(Cl)c1)C1Cc2c(-c3ccccc3)ccnc2O1 (centres undefined)
26	O=C(NCc1cccc(Cl)c1)C1CCCO1 (centres undefined)
27	CC(=O)Nc1cccc(-c2ccnc3c2CC(C(=O)NCc2ccc(N(C)C)cc2)O3)c1 (centres undefined)
28	CN1CCN(c2ccc(CNC(=O)C3Cc4c(-c5ccc6c(c5)OCO6)ccnc4O3)cc2)CC1 (centres undefined)
29	CC(=O)Nc1cccc(-c2ccnc3c2CC(C(=O)NCc2ccncc2)O3)c1 (centres undefined)
30	CN1CCN(c2ccc(CNC(=O)C3Cc4c(-c5ccc(Cl)cc5)ccnc4O3)cc2)CC1 (centres undefined)
31	O=C(NCc1cccnc1)C1Cc2c(-c3ccc(Cl)cc3)ccnc2O1 (centres undefined)
32	CC1CN(C(C)C(=O)NNC(=O)c2ccc(F)cc2)CC(C)O1 (centres undefined)

Compound | 25 | 26 | 27 | 28 | 29 | 30 | 31 | 32
miR-21 FLuc | x | -4% | x | x | x | x | x | x
DT40 TDP1 no CPT | 16µM* | -3% | 18µM* | u | -20% | 16µM* | 8.2µM* | -13%
TDP1 cell CPT | 29µM* | 14% | 13µM* | -10% | -6% | u | 5.8µM* | 5%
uPA generation | x | 1% | x | x | x | x | x | 3%
TDP1 inh | x | 11% | x | x | x | x | x | 1%

33	Cc1cc(OCC(=O)N(Cc2sccc2C)C2CCS(=O)(=O)C2)ccc1Cl (centres undefined)
34	Cc1ccc2nc3c(cc(C#N)c(=O)n3-c3nnc(SCc4ccccc4)s3)c(=O)n2c1
35	CC(=O)Nc1cccc(-c2ccnc3c2CC(C(=O)NCc2ccc(F)c(F)c2)O3)c1 (centres undefined)
36	NC(=O)c1cccc(-c2ccnc3c2CC(C(=O)NCc2ccccc2)O3)c1 (centres undefined)
37	NC(=O)c1cccc(-c2ccnc3c2CC(C(=O)NCc2ccc(F)c(F)c2)O3)c1 (centres undefined)
38	NC(=O)c1cccc(-c2ccnc3c2CC(C(=O)NCCC(F)(F)F)O3)c1 (centres undefined)
39	CSc1ccccc1C(=O)NC1CCCN(c2ccc(C(F)(F)F)cn2)C1 (centres undefined)
40	O=C1OC[C@H]2CCCN2C(=O)[C@@H](CC(=O)N(CCO)Cc2ccccc2)C/C=C\C[C@@H]1Cc1ccc(F)cc1

Compound | 33 | 34 | 35 | 36 | 37 | 38 | 39 | 40
miR-21 FLuc | 4% | -1% | x | x | x | x | 3% | x
DT40 TDP1 no CPT | u | -17% | 3.3µM* | 1.3µM* | 8.2µM* | -20% | -6% | 18µM*
TDP1 cell CPT | u | -24% | 3.3µM* | 0.58µM* | 4.6µM* | u | u | 7.3µM*
uPA generation | x | x | x | x | x | x | -4% | -21%
TDP1 inh | 5% | 3% | x | x | x | x | 1% | 0%

41	CC(C)(C)OC(=O)C[C@H]1C/C=C\C[C@@H](CC(=O)N(CCO)Cc2ccccc2)C(=O)N2CCC[C@H]2COC1=O
42	CC(C)(C)OC(=O)C[C@H]1C/C=C\C[C@@H](CC(=O)N(CCO)Cc2ccccc2)C(=O)N2CCC[C@@H]2COC1=O
43	O=C1OC[C@@H]2CCCN2C(=O)[C@H](CC(=O)N(CCO)Cc2ccccc2)C/C=C\C[C@H]1Cc1ccc(F)cc1
44	O=C1CCCN1c1nccs1

Compound | 41 | 42 | 43 | 44
miR-21 FLuc | x | x | x | 4%
DT40 TDP1 no CPT | u | u | u | -18%
TDP1 cell CPT | 18µM* | u | u | -7%
uPA generation | 15% | -4% | -2% | 7%
TDP1 inh | 3% | 1% | 0% | -2%
